{"source": "PubChem BioAssay AID775", "about": "(SRMLSC, 2007)", "note": "The list shows a part of the results, in another mix than the full data. The source made the active and inactive calls.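 Rule for the calls: active = inhibition above a set limit, placed 3 SD over the median of all compounds (cut at about 26% in these data); inactive = the rest.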"}
{"assay": "compounds extending yeast replicative lifespan, primary screen, S. cerevisiae, OD615 (AID 775);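 note: 0% = nicotinamide-treated wells and 100% = cells grown without nicotinamide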", "settings": "S. cerevisiae growth with nicotinamide, at 10 µM, stronger effect = higher value, deaD strain in restrictive glucose medium"}
{"compound": "Cc1ccc(NCCc2c([N+](=O)[O-])cc([N+](=O)[O-])cc2[N+](=O)[O-])cc1", "inhibition of the nicotinamide effect": "inactive: 7.84%"}
{"compound": "COc1cc(C2NCCC3(OCCO3)C2(C)C)cc(OC)c1OC", "note": "(stereo not given)", "inhibition of the nicotinamide effect": "inactive: -5.1%"}
{"compound": "CCOP(=O)(Nc1cccc2ccccc12)OCC", "inhibition of the nicotinamide effect": "inactive: 3.03%"}
{"compound": "Cc1cccc(OCC(=O)OC2CN3CCC2CC3)c1", "note": "(stereo not given)", "inhibition of the nicotinamide effect": "inactive: -7.18%"}
{"compound": "CCOP1(=S)c2c(C)nn(CCC#N)c2N=C(c2ccc(F)cc2)N1C", "note": "(stereo not given)", "inhibition of the nicotinamide effect": "inactive: -10.7%"}
{"compound": "O=[N+]([O-])c1ccc2c(c1)nnn2O", "inhibition of the nicotinamide effect": "inactive: -9.55%"}
{"compound": "CCOP1(=S)c2c(C)nn(CCC#N)c2N=C(c2ccccc2F)N1C", "note": "(stereo not given)", "inhibition of the nicotinamide effect": "inactive: -11.2%"}
{"compound": "O=P(Nc1nccs1)(c1ccccc1)c1nc2ccccc2s1", "note": "(stereo not given)", "inhibition of the nicotinamide effect": "inactive: -12.2%"}
{"compound": "O=P1(Nc2ncccn2)COc2ccccc2OC1", "inhibition of the nicotinamide effect": "inactive: -2.51%"}
{"compound": "O=P1(Nc2ccc(Br)cn2)COc2ccccc2OC1", "inhibition of the nicotinamide effect": "inactive: -0.76%"}
{"compound": "Cc1ccc(OCC(=O)OC2CN3CCC2CC3)cc1", "note": "(stereo not given)", "inhibition of the nicotinamide effect": "inactive: 2.83%"}
{"compound": "Cc1nn(-c2ccccc2)c2c1P(=O)(N1CCOCC1)N(C)C(c1ccccc1)=N2", "note": "(stereo not given)", "inhibition of the nicotinamide effect": "inactive: -20.8%"}
{"compound": "O=P1(Nc2ccccn2)COc2ccccc2OC1", "inhibition of the nicotinamide effect": "inactive: -0.11%"}
{"compound": "Clc1n[nH]nc1-c1nn[nH][15n]1", "inhibition of the nicotinamide effect": "inactive: -2.04%"}
{"compound": "COP1(=S)c2c(C)nn(CCC#N)c2N=C(c2ccc(F)cc2)N1C", "note": "(stereo not given)", "inhibition of the nicotinamide effect": "inactive: -8.85%"}
{"compound": "O=C(COc1ccccc1)OC1CN2CCC1CC2", "note": "(stereo not given)", "inhibition of the nicotinamide effect": "inactive: -15.9%"}
{"compound": "Cc1cc(SC(NC(=O)c2ccccc2)C(Cl)(Cl)Cl)nc(C(C)C)n1", "note": "(stereo not given)", "inhibition of the nicotinamide effect": "inactive: -7.74%"}
{"compound": "CCN(CC)C(=S)SC(NC=O)C(Cl)(Cl)Cl", "note": "(stereo not given)", "inhibition of the nicotinamide effect": "inactive: -22.6%"}
{"compound": "O=[N+]([O-])c1cc([N+](=O)[O-])c(-c2ccn[nH]2)s1", "inhibition of the nicotinamide effect": "inactive: -7.76%"}
{"compound": "Cc1ccc2nc3c(c(C)c2c1)CC(C(Cl)Cl)S3", "note": "(stereo not given)", "inhibition of the nicotinamide effect": "inactive: -3.66%"}
{"compound": "Cc1c2c(nc3ccccc13)SC(C(Cl)Cl)C2", "note": "(stereo not given)", "inhibition of the nicotinamide effect": "inactive: -3.49%"}
{"compound": "O=C(OC1CN2CCC1CC2)C12CC3CC(CC(C3)C1)C2", "note": "(stereo not given)", "inhibition of the nicotinamide effect": "inactive: -11.8%"}
{"compound": "Oc1ccccc1CNc1ccccn1", "inhibition of the nicotinamide effect": "inactive: -0.22%"}
{"compound": "Cc1c2non([O-])c-2c(C)[n+](=O)[n+]1[O-]", "inhibition of the nicotinamide effect": "inactive: 20.1%"}
{"compound": "O=C(NC(Sc1ccncn1)C(Cl)(Cl)Cl)c1ccccc1", "note": "(stereo not given)", "inhibition of the nicotinamide effect": "inactive: 23.3%"}
{"compound": "CC(C)CC(=O)NC(Sc1ccc(Cl)cc1)C(Cl)(Cl)Cl", "note": "(stereo not given)", "inhibition of the nicotinamide effect": "inactive: 11%"}
{"compound": "CCN(N=Nc1nonc1N)c1nonc1N", "inhibition of the nicotinamide effect": "inactive: 6.9%"}
{"compound": "CCOP(=O)(Nc1ccccc1)OCC", "inhibition of the nicotinamide effect": "inactive: 2.46%"}
{"compound": "Cc1cc(SC(NC(=O)c2ccc(F)cc2)C(Cl)(Cl)Cl)ncn1", "note": "(stereo not given)", "inhibition of the nicotinamide effect": "inactive: 1.89%"}
{"compound": "CC1CCN(C(=O)Oc2c(Cl)cc(Cl)c3cccnc23)CC1", "inhibition of the nicotinamide effect": "inactive: -4.32%"}
{"compound": "CN(C)C(=O)OCCc1n(C)cc[n+]1C", "inhibition of the nicotinamide effect": "inactive: 6.75%"}
{"compound": "CCc1nc2c(n1)c1c(non1O)c1c2no[n+]1[O-]", "inhibition of the nicotinamide effect": "inactive: -6.16%"}
{"compound": "O=[N+]([O-])c1cccc2n[nH]nc12", "inhibition of the nicotinamide effect": "inactive: -5.56%"}
{"compound": "CC(=O)N1C2C3N(C(C)=O)C1C1N(C(C)=O)C(C(N1C(C)=O)N3C(C)=O)N2C(C)=O", "inhibition of the nicotinamide effect": "inactive: -3.52%"}
{"compound": "CC(C)C(=O)NC(Sc1ccccc1)C(Cl)(Cl)Cl", "note": "(stereo not given)", "inhibition of the nicotinamide effect": "inactive: 4.96%"}
{"compound": "O=P(Nc1nccs1)(c1ccccc1)c1ccccc1", "inhibition of the nicotinamide effect": "inactive: -8.09%"}
{"compound": "c1nnnn1CCn1cnnn1", "inhibition of the nicotinamide effect": "inactive: -2.8%"}
{"compound": "CC(=O)NC(SC(=S)N(C)C)C(Cl)(Cl)Cl", "note": "(stereo not given)", "inhibition of the nicotinamide effect": "inactive: 15.1%"}
{"compound": "O=C(OC1CN2CCC1CC2)c1cccc(Cl)c1", "note": "(stereo not given)", "inhibition of the nicotinamide effect": "inactive: -27.9%"}
{"compound": "C(Cc1nn[nH]n1)Cc1nn[nH]n1", "inhibition of the nicotinamide effect": "inactive: 3.69%"}
{"compound": "CCC(=O)N1C2C3N(C(=O)CC)C1C1N(C(=O)CC)C(C(N1C(=O)CC)N3C(=O)CC)N2C(=O)CC", "inhibition of the nicotinamide effect": "inactive: -16.6%"}
{"compound": "COC(=O)c1cc2c(s1)N=C(c1ccccc1)N(C)P2(=O)N1CCOCC1", "note": "(stereo not given)", "inhibition of the nicotinamide effect": "inactive: -11.7%"}
{"compound": "CC(=O)NC(SC(=S)N(CC(C)C)CC(C)C)C(Cl)(Cl)Cl", "note": "(stereo not given)", "inhibition of the nicotinamide effect": "inactive: 4.82%"}
{"compound": "CCOC(=O)NC(Sc1ccccc1)C(Cl)(Cl)Cl", "note": "(stereo not given)", "inhibition of the nicotinamide effect": "inactive: -0.68%"}
{"compound": "O=P1(Nc2nc3ccc(Cl)cc3s2)COc2ccccc2O1", "note": "(stereo not given)", "inhibition of the nicotinamide effect": "inactive: -14.5%"}
